Measurements published in PubChem BioAssay AID1422 (Emory University Molecular Libraries Screening Center, 2008).
Where “and” joins values, the source holds several entries; their conditions need not be identical. Equal values may be shown once. Only a part is listed here, and it is no random draw. Calls of active or inactive are those of the source.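 The calls were made as follows: active = percent inhibition above 40 after rounding to a whole number; inactive = the rest.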

Protein sequences, listed by entry. Tags and fused reporters are not part of them. Lines headed by an entry give the natural chain unless they say otherwise; changes in a name come on top.
UniProt P43116: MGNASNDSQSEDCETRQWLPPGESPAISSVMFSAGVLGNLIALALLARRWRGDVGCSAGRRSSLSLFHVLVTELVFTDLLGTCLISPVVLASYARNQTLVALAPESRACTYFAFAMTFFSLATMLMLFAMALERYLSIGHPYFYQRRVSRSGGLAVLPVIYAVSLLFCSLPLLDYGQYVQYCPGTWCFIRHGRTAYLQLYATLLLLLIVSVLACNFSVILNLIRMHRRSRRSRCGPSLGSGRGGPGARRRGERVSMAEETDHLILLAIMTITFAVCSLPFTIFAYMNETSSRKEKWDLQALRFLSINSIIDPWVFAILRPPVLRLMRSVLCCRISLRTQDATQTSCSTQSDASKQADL

What follows are molecules tested against Prostaglandin E2 receptor EP2 subtype (Homo sapiens) (UniProt P43116) (assay: blockers of PGE2-driven EP2 cAMP signalling – TR-FRET cAMP, C6 glioma cells, primary screen (AID 1422;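 also: rat C6 glioma host cells with rolipram phosphodiesterase inhibitor present; the protocol text gives 20 µM as final concentration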)). Details: C6 glioma cells expressing human EP2, cAMP TR-FRET; at 25 µM; stronger effect = higher value; cells stimulated with saturating PGE2.

SMILES | inhibition
C(Cc1nn[nH]n1)c1nn[nH]n1 | inactive: 10.4%
CCN(N=Nc1nonc1N)c1nonc1N | inactive: 11.8%
Nc1cccc2ccc([As](=O)(O)O)cc12 | inactive: 5.9%
[N-]=[N+]=NCC(O)CN=[N+]=[N-] (stereo not given) | inactive: 9.25%
CN(C(=O)Cc1ccc(Cl)c(Cl)c1)[C@H]1CCCC[C@@H]1N1CCCC1 | inactive: 14.3% and inactive: 21.7%
Cc1ccc(NP(=O)(Oc2ccccc2F)Oc2ccccc2F)nc1 | inactive: 12.3%
CCOP(=O)(Nc1ccccc1)OCC | inactive: 6.7%
Cc1cc(SC(NC(=O)c2ccc(F)cc2)C(Cl)(Cl)Cl)ncn1 (stereo not given) | inactive: 6.18%
O=C(O)c1ccccc1[As](=O)(O)O | inactive: 8.24%
CC(=O)Nc1ccc([As](=O)(O)O)cc1 | inactive: 9.56%
O=P(Nc1nc2ccc(Cl)cc2s1)(c1ccccc1)c1ccccc1 | inactive: 6.48%
NCC[C@@H](N)CSP(=O)(O)O | inactive: 6.32%
CC(C)CC(=O)NC(Sc1ccc(Cl)cc1)C(Cl)(Cl)Cl (stereo not given) | inactive: -1.82%
Nc1cc(N)c2nonc2c1[N+](=O)[O-] | inactive: 4.26%
Cc1c2non([O-])c-2c(C)[n+](=O)[n+]1[O-] | inactive: 8.05%
O=C(NC(Sc1ccncn1)C(Cl)(Cl)Cl)c1ccccc1 (stereo not given) | inactive: 12.8%
Oc1ccccc1CNc1ccccn1 | inactive: 5.09%
Cc1ccc(OP(=O)(Nc2nccs2)Oc2ccc(C)cc2)cc1 | inactive: 8.26%
O=[N+]([O-])c1ccc(C[As](=O)(O)O)cc1 | inactive: 14.3%
CCOc1ccc(/C=C2/C(=O)NC(=O)N(Cc3ccco3)C2=O)cc1 | inactive: 8.08%
COc1ccccc1OP(=O)(Nc1ccc(C)cn1)Oc1ccccc1OC | inactive: 8.26%
Clc1ccc(Cl)c(NC2=NCC(CBr)S2)c1 (stereo not given) | inactive: 3.7%
CN1CCCC(OC(=O)C(c2ccccc2)c2ccccc2)C1 (stereo not given) | inactive: 6.74%
NC(=O)c1cc([N+](=O)[O-])cc([N+](=O)[O-])c1N | inactive: 9.24%
Cc1ccc(N/C(=N/P(=O)(N2CCOCC2)N2CCOCC2)N2CCOCC2)cc1 | inactive: 5.58%
CN(C)C(=O)OCCc1n(C)cc[n+]1C | inactive: 2.12%
CC(C)=N/N=C(\N)N[N+](=O)[O-] | inactive: 3.31%
CC1CCN(C(=O)Oc2c(Cl)cc(Cl)c3cccnc23)CC1 | inactive: 0.76%
O=C(CO)Nc1ccc([As](=O)(O)O)cc1 | inactive: 7.09%
C[N+]1=C2C=CC=CC=C2SC12C([N+](=O)[O-])=CC([N+](=O)[O-])=C[C-]2[N+](=O)[O-] (stereo not given) | inactive: 7.82%
